Tested on: MAS tripeptide (Met-Ala-Ser)

recombinant human MetAP-1 expressed in Sf9 insect cells
Km: 8.5 mM | kcat: 0.75 s⁻¹

Source: US20030203406
